Data: ChEMBL document CHEMBL4715748, “Synthesis and biological investigation of new equatorial (β) stereoisomers of 3-aminotropane arylamides with atypical antipsychotic profile” (Bioorg Med Chem, 2016)

Chains of the proteins cited; added tags and fusions are not shown.
UniProt P19327, whole entry: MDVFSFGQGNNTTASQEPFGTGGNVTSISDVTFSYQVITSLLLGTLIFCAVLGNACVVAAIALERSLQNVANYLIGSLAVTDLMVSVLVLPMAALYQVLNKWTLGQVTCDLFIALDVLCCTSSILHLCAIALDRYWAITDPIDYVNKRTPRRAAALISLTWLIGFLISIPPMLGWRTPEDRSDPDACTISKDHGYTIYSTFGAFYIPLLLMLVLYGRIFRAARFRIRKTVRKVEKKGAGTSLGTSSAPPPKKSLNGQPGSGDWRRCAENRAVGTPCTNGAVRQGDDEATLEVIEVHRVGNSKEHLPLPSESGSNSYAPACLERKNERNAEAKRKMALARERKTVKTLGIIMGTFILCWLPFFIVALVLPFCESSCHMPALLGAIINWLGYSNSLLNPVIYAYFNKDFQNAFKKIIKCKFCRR

Molecular target: 5-hydroxytryptamine receptor 1A (Rattus norvegicus, UniProt P19327)
Test: Displacement of [3H]-8-OH-DPAT from rat cerebral cortex 5HT1A receptor measured after 15 mins by liquid scintillation counter method

**Q.** For `NCCc1c[nH]c2ccc(O)cc12` [SEROTONIN], which Ki is on record?
**A.** 2.3 nM
